From patent US10682371B2, “Small molecule conjugates specifically activated in tumor microenvironment for targeting and use thereof” (priority 2014, dated 2020)

Experiments:
tumor CD8+ T cells = assay type: in vivo; settings: D121 immunized C57 mice, 13.2 μmol/kg; ratio of CD8 positive cells in CD45 positive cells of tumor
Method: (§1) 4) Analysis on tumor CD8+ T cells. The tumor tissue was homogenated and individual cells in the tumor were filtered, separated and washed by buffer twice, then cultivated with the leucocyte common antigen CD45-PE and CD8-FITC marked antibodies for 1 hour at ambient temperature. The cells were washed by phosphate buffer containing 1% fetal bovine serum twice and then analyzed for the ratio of the T lymphocyte antigen (CD8) positive cells in the leucocyte common antigen (CD45) positive cells by flow cytometry.
as §1, with “CD45-PE and T-lymphocyte antigen CD8-FITC marked” for “CD45-PE and CD8-FITC marked”, “flow cytometry. […]” for “flow cytometry.”
4) Analysis on tumor CD8+ T cells. […] The cells were washed by phosphate buffer containing 1% fetal bovine serum twice and then analyzed for the ratio of the T lymphocyte antigen (CD8) positive cells in the leucocyte common antigen (CD45) positive cells by flow cytometry. […]

Human heart = assay type: biochemical; settings: Human heart homogenate; 1 mg/ml compound
D121 lung tumor cells = assay type: in vivo, C57 mice
Method: 1) D121 lung tumor cells were purchased from ATCC. Cells were cultivated in DMEM culture solution containing 10% fetal bovine serum at 37° C. and 5% CO2. The cells were passaged for every three days and cells within the 15th passage were used.
(§2) 2) Tumor immunization. 5×10^5 D121 lung cancer cells (purchased from ATCC) which were killed by irradiation were intraperitoneally injected to mice. The mice were injected for 3 times, once every two weeks. After immunization, mice were injected with tumor cells and the drugs were administered weekly for 4 weeks.
3) Production of tumor. At day 32, 10^6 live lung tumor cells were subcutaneously injected to the back of the C57 mice immunized by tumor. Treatment began when the tumor grew to 0.3-0.4 cm.
as §2, with “4 weeks. In table 16 below the immune group was immuned with D121 lung tumor cells and the group without dead D121 lung tumor cells was injected with physiological saline as controls.” for “4 weeks.”
3) Production of tumor. After immunization (4 weeks later), 10^6 live lung tumor cells were subcutaneously injected to the back of the C57 mice immunized by tumor. Treatment began when the tumor grew to 0.3-0.4 cm. Tumor size (mm^3) were noted and tumor inhibition rates were calculated.
as §2, with “4 weeks. In the table below the immune group was immuned with D121 lung tumor cells and the group without dead D121 lung tumor cells was injected with physiological saline as controls.” for “4 weeks.”
3) Production of tumor. […]

HEK293 cells = assay type: cell-based; settings: HEK293, 72 hours, MTT; IC50 of modified compound compared to its corresponding cytotoxic compound; approximate multiples
Method: Toxicity detection method: a standard universal test program was used to perform the in vitro cytotoxicity test. 2500 HEK293 cells were cultured in a 96-well plate, and allowed to grow overnight. Cytotoxic compounds and their corresponding conjugated compounds were added into each well in different concentrations, cultivated with the cells at 37° C. for 72 hours, and then treated with MTT reagents. OD changes were read. The approximate multiples of the toxicity change were obtained by comparing the IC50 of the modified compounds to their corresponding cytotoxic compounds.

[1] = test system: Human breast cancer MDA-MB435 tumor tissue homogenate; assay type: biochemical; settings: Human breast cancer MDA-MB435 tumor tissue homogenate (30 μg/ml); 1 mg/ml compound
Method: At 37 °C, sample compounds were added into 100 μg acidized tumor tissue homogenates (pH6.0) in a concentration of 1 mg/ml.
(§3) At 37 °C, sample compounds were added into 100 μg acidized human breast cancer (MDA-MB435) tumor tissue homogenates (pH6.0) in a concentration of 1 mg/ml.
[…], sample compounds were added into 100 μg acidized tumor tissue homogenates (pH6.0) in a concentration of 1 mg/ml.
as §3
At 37 °C, sample compounds were added into 100 μg acidized tumor tissue homogenates in a concentration of 1 mg/ml.
In the experiments, at 37 °C, compounds were added into proteases in 100 μg acidized tumor tissue homogenates in a concentration of 1 mg/ml. […] Meanwhile certain compounds produced in the screening were compared and their activation efficiency in same tissue was analyzed.
At 37° C., compounds were added into proteases in 100 μg acidized tumor tissue homogenates in a concentration of 1 mg/ml.

[2] = D121 immunized C57 mice, 13.2 μmol/kg weekly, PDL1 antibody 5 μg/kg where combined, Day 18

For “4-N—(N—(N—(N-(2-(2-methoxyethoxy) acetyl-L-alanyl)-L-alanyl)-L-asparaginyl)-amino benzyl alcohol-camptothecin-carbonic acid diester [Compound S2]”, the “CD8: D45 (%)” value (tumor CD8+ T cells) was 17.7%, the “Activation Efficiencies (%)” value (Human heart) was 0.5% and the “Inhibitory rate on tumor Day 18” value (D121 lung tumor cells; [2]) was 72.03. The “Size of tumor (mm^3) Day 18” value (D121 lung tumor cells; [2]) was 379.67 ± 214.45 mm^3, the “Treatment effects on C57 mice, in words” value (D121 lung tumor cells; compared to the control group and the other treatment groups) was “greatly improved” and the “Cytoxicity reduced (Multiple)” value (HEK293 cells) was 145 Multiple. For the same substance, the “Activation Efficiencies (%)” value [1] was 78.4%.
